Data: patent US20150246141A1, “DIAGNOSTIC AGENTS WITH ENHANCED SENSITIVITY/SPECIFICITY” (BEN-GURION UNIVERSITY OF THE NEGEV RESEARCH AND DEVELOPMENT …, priority 2012, published 2015)

Tested on: LS-174T human colorectal adenocarcinoma
Assay: Murine orthotopic colorectal tumor model LS-174T, intraluminal instillation, imaging of excised colon and organs
Assay type: in vivo, female athymic nude mice
Details: 40 μg per mouse (0.2 mg/ml) intraluminally
Protocol: The murine orthotopic colorectal tumor model LS-174T human colorectal adenocarcinoma cells (3×10^7 cells) were injected (600 μL) into the descending colonic wall of 13 anesthetized, female athymic nude mice, after an over night fast. […] Histopathological examination was performed on paraffin fixed colonic tissue specimens, after an H&E stain and verified that the carcinoma infiltrated within the mucosa, submucosa, and muscular layer
Thirty days after tumor induction, aqueous solution (PBS, 0.2 mg/ml) of 9.2% of P-(AP-IR783) prepared according to Example 1 was instilled into the colon of the anesthetized mice over 20 minutes, after which colons were washed ×3 times with large volumes of PBS. The mice were sacrificed 3 hrs post treatment, their colons exteriorized, separated, cut open, spread on a transparent film with the mucosal aspects upwards, and imaged by the Odyssey® Infrared Imaging System (Li-Cor Biosciences, Lincoln, Nebr., USA.) with excitation wavelength of 780 nm and emission wavelength of 800 nm.

[1] = images at 3 hours following washing

Substance: HPMA copolymer bearing IR783-S-Ph-COOH [P-(AP-IR783)]
- accumulation in irrelevant, well perfused tissue such as the heart or in the urine: accumulation was not found
- background staining in unaffected tissues and samples (e.g. heart, small bowel, urine) [1]: very little background staining
- staining in excised tumor colon tissue, stomach, liver, lungs and feces [1]: intense staining
